For assay [1], the system named is human hepatocellular carcinoma cells HepG2. Description: CellTiter-Glo cell viability, 72 hours. Particulars: HepG2, 10 nM, duplicate wells. The class given is cell-based. The text has this:
(§1) A first exemplary embodiment is shown a detection of the angstrom silver on a proliferation influence of human non-small cell lung cancer cells A549 and human hepatocellular carcinoma cells HepG2.
(§2) Reagents and consumables shown below: 1. HepG2, provided by HD Biosciences (Shanghai) Co., Ltd., and passed a mycoplasma detection; 2, F 12K culture medium, American Gibco, Art. No.: 21127-022; 3. EMEM culture medium, American ATCC, Art. No.: 30-2003; 4. Fetal bovine serum (FBS), American Hyclone, Art. No.: CH30160.03; 5. Penicillin-streptomycin liquid, American Invitrogen, Art. No.: CH15140-122; 6. DG-5 (25 Ang) and DG-5 solvents, DG-6 (25 Ang) and DG-6 solvents respectively provided by Shenzhen AMCAN Medical Biotechnology Limited; 7. STSP, UK Tocris, Cat#3259; 8. DMSO, American Sigma, Art. No.: D4540; 9. 96-well cell culture plate, American Corning, Art. No.: 3610; 10. CellTiter-Glo Luminescent Cell Viability Assay, American Promega, Art. No.: G7571; 11. Plate reader, American Perkin Elmer, EnVision Multilabel Plate Reader.
(§3) Cell culture medium: 1. […]
(§4) 3. […] At this time, the gradient concentration of a compound to be measured includes 150 ppm, 15 ppm, 1.5 ppm, 0.15 ppm and 0.015 ppm, which is a 2-by-compound solution to be used to treat cells.
(§5) 4. […] At this time, the gradient concentration of the compound to be measured includes 2 μM, 200 nM, 20 nM, 2 nM and 0.2 nM, which is a 2-by-compound solution to be used to treat cells. […]
(§6) 5. Placing the 96-well cell culture plate in a plate reader to analyze it, and setting it to read chemical luminescence and record data.
(§7) Readout in each hole needs to be converted to a cell viability. The cell viability can be calculated by the following formula: […]
(§8) The post-processing data will be used to perform nonlinear regression analysis using a GraphPad Prism 5 analysis software to obtain a dose-effect curve, at the same time, a half-killing concentration to the cell is obtained by calculating the compounds DG-5, DG-6 to be measured and the positive compound STSP.
A general note: ATP-based viability assays read luminescence as a measure of living cells.

Assay [2] concerns human non-small cell lung cancer cells A549. Description: CellTiter-Glo cell viability, 72 hours. The class given is cell-based. The note with it: duplicate wells.
Text: as §1, §2, §3, §4, §5, §6, §7, §8

Molecules are shown by their SMILES.

`CN[C@@H]1C[C@H]2O[C@@](C)([C@@H]1OC)n1c3ccccc3c3c4c(c5c6ccccc6n2c5c31)C(=O)NC4` [STSP]: the “Percentage of cell growth” value in assay [1] is recorded as 78.5%; in assay [2] (A549, 100 nM), 31.2%; in assay [2] (A549, 1000 nM) it was 12.1%.

(Values after patent US20200038438A1, “ANGSTROM SILVER INJECTION FOR CANCER INHIBITION, PREPARATION METHOD AND APPLICATION THEREOF” (Shenzhen AMCAN Medical Biotechnology Limited, priority 2018, published 2020).)
